Each structure is given as a SMILES string.

The assay has as its system Mus musculus. The class given is functional, organism-based. Conditions: dose 100.0 mg/kg, route ip, time 30.0 min; call rule not given here.

For `CCCC(CCC)C(=O)O` [VALPROIC ACID], the Activity entry is “Not active; Moderate Nuclear Pyknosis Observed”.

Values taken from ChEMBL document CHEMBL6182899, “Shooting an Arrow against Convulsion: Novel Triazole-Grafted Benzenesulfonamide Derivatives as Carbonic Anhydrase II and VII Inhibitors” (J Med Chem, 2025).
